Read-outs that look alike come from different tables or passages of the source. Marks after values point to notes of the source that are not given here.
Test system: human keratinocytes
Settings: human keratinocytes in culture
Procedure: I-Measurement of the Amount of Haluronic Acid Bound to the Surface of Keratinocytes
The following steps are performed:
15,000 human keratinocytes are inoculated in culture wells (96-well plates) in a K-SFM medium (Gibco).
2—Production of Confluent Cultures:
Incubation of the cultures for 72 hours at 37° C. under a humidity-saturated atmosphere, with 5% CO2, with renewal of the culture medium after 48 h.
3—Binding of Hyaluronic Acid:
Incubation of the cells for 4 hours at 4° C. with hyaluronic acid covalently bonded to a fluorochrome, […] (HA-FA), synthesized in the laboratory according to the technique described in “Preparation and properties of fluoresceine-labelled hyaluronate; carbohydrate research, 1975, Vol. 44, pp. 251-257”, prepared in K-SFM containing 0.2% sodium azide.
4—Evaluation of the Activity of the Test Products:
The products for which it is desired to evaluate the action on the amount of HA-FA bound by keratinocytes are added to the incubation medium at the start of incubation. Controls are carried out in the absence of the products to be evaluated and in the presence of their excipient which was used to dissolve them.
5—Nonspecific Binding of HA-FA.
In order to determine the nonspecific labelling, the same experimental conditions as in step 3 are rigorously used, but with the addition of 200 times more hyaluronic acid not labelled with a fluorochrome.
6—Fluorescence Quantification:
After the HA-FA binding medium has been removed, two rinses with PBS are carried out, after which the fluorescence bound to the keratinocytes is measured at an excitation wavelength λex 485 nm and an emission wavelength λem=538 nm.
7—Expressing the Results:
The results are expressed in fluorescence units (“specific fluorescence”), with the nonspecific fluorescence being deducted (see 5-).
To do this, the fluorescence values measured are reduced to the cellular DNA content, carried out according to the DAPI method (see III-).

calcium gluconate
Fluorescence measured (FU) Mean (Table II, 5 mM): 310* FU | Fluorescence measured (FU) Mean (Table II, 10 mM): 2,745* FU

manganese chloride [MnCl2]
Fluorescence measured (FU) Mean (Example 5 table, 5 mM): 1,593* FU | Fluorescence measured (FU) Mean (Example 5 table, 10 mM): 1,524* FU

Source: patent publication US20040043047A1, “Cosmetic or dermatological compositions containing at least one substance for increasing the functionality and/or expression of the CD44 membrane receptors of skin cells” (priority 1999, published 2004)
